Target: T1, human 5-HT1A receptor (Homo sapiens, UniProt P08908)
T1 construct: purchased Euroscreen; host or cells: CHO-K1
Assay: Radioligand competition binding and kinetics, CHO-K1 membranes
Details: [3H]-WAY100635, read-out: IC50 from binding assay
Experimental: For kinetics of radioligand competitive binding, serial dilutions were performed from master solution in 100% DMSO to obtain intermediate concentrations 200-fold higher than the concentrations to be tested. Each test sample was diluted 100-fold in the assay buffer and dispensed into the test plate.
Determination of the Kon constant. Radioligand association kinetics on each receptor were performed by adding in the wells of a 96 well plate 50 μL of radioligand and 50 μL of membrane extracts. The samples were incubated for the times reported in Table 3 below at a temperature optimized for each receptor and filtered over a filter plate. After washing the filters 5 times with 0.5 mL of ice-cold washing buffer, 50 μL of Microscint 20 (Packard) were added to the filters and the plates were incubated 15 min on an orbital shaker and then counted for 1 min/well. This allowed determination of the kobs for each radioligand. […] The different kobs were then plotted against the [radioligand] and the K. was calculated using the following equation: kon=(kobs−koff)[radioligand].
Determination of the Koff constant. […] The samples were incubated as reported in Table 4 below at a temperature optimized for each receptor until binding equilibrium was reached as determined by the association kinetics experiment. […]

The chains behind the UniProt entries cited, without tags or fusion partners.
UniProt P08908, whole entry: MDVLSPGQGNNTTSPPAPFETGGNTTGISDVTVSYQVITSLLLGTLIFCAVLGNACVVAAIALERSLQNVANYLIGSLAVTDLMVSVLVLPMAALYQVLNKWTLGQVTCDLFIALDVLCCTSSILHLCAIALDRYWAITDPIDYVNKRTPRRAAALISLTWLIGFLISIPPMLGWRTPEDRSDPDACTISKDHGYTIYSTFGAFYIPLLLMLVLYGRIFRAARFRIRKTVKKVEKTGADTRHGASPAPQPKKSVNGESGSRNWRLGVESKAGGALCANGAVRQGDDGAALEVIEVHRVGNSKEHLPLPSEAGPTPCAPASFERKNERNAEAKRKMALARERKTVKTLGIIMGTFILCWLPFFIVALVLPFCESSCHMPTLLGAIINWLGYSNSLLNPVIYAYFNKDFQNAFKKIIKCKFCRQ

## CNS(=O)(=O)Cc1ccc2[nH]cc(CCN(C)C)c2c1 [Sumatriptan, sumatriptan]
  IC50: 778 nM

Reference: patent US20150306096A1, “8'-HYDROXY-DIHYDROERGOTAMINE COMPOUNDS AND COMPOSITIONS” (MAP Pharmaceuticals, Inc., priority 2012, published 2015)
